# Binding of CDR-mutated scFvs to a peptide of the spike HR2 region

Antigen: PDVDLGDISGINAS, a 14-residue peptide of the SARS-CoV-2 spike HR2 region.

Each scFv is VH, the linker GGGGSGGGGSGGGGS, VL, as in the parent Ab-14, and differs from it in the CDRs of the heavy chain only.
VH: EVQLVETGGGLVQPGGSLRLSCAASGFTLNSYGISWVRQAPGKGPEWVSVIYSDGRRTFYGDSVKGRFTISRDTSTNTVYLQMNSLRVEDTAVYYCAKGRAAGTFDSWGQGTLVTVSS
VL: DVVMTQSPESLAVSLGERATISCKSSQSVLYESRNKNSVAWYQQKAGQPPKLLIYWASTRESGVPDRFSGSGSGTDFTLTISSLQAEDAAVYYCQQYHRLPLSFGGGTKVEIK

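Phage display of a naive human antibody library on the peptide gave the parent. In library AAYL49, one, two or three CDR residues were substituted; doubles and triples were drawn at random. AlphaSeq pools MATa yeast showing the antibodies with MATalpha yeast showing the peptide. After mating in shaken culture at 30 °C for 16 h, diploids were selected and their barcode pairs sequenced. A regression on co-assayed BCL2-family reference pairs converts the normalised counts of each replicate to an apparent Kd. Mating was done three times.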

The parent's heavy chain CDRs are GFTLNSYGIS, VIYSDGRRTFYGDSVK, GRAAGTFDS; each variant's own CDRs replace them letter for letter.
Scale: log10 of Kd in nM, estimated from mating counts; low values are strong binders.
A mean of the replicates is given; it leaves out those without a signal.
Where no diploid with the target was found in that replicate, the entry reads "nd": below detection, most likely a poor binder, though not proof of it.

| # | CDR-H1 | CDR-H2 | CDR-H3 | replicates, log10 nM | log10 Kd (nM), mean | empty controls |
|---|---|---|---|---|---|---|
| 1 | GFTLNSYGIS | VIYSDGRRTHFGDSVK | GRAAGTFCS | nd nd nd | nd | 3/9 (4.16) |
| 2 | GFTLSMYGIS | VIYSDGRRTFYGDSVK | PRAAGTFDS | nd nd 5.60 | 5.60 | 1/9 (5.83) |
| 3 | GFTLNSYGIA | VIYSDPRRTFYGDSVK | GRAAVTFDS | nd nd nd | nd | 0/9 |
| 4 | DFTLNSYGIS | VPYSDGRRTFYGDSVK | GRAAGTFDS | 4.88 nd nd | 4.88 | 0/9 |
| 5 | GFTLNSYIIS | VIYSDGRRTFYGDSVK | GRAAGTFDN | nd nd 4.68 | 4.68 | 1/9 (3.87) |
| 6 | GFTLNSYGIS | PIYSDGRRTFYGDSVC | GRAAGIFDS | nd nd nd | nd | 1/9 (3.14) |
| 7 | GFTLNSYGIS | VIYSDWRRTFYGDSVK | GRAAHTFDS | nd nd nd | nd | 0/9 |
| 8 | RFTLNSYGIS | VIYSDGRRTFYGDSVK | GRAAENFDS | nd nd nd | nd | 0/9 |
| 9 | GFTLTSYGQS | VIYSDGRRTFYGDSHK | GRAAGTFDS | nd nd nd | nd | 2/9 (3.74) |
| 10 | GFTFNSYGIS | VIISDGRRTFPGDSVK | GRAAGTFDS | nd 3.42 nd | 3.42 | 5/9 (3.77) |
| 11 | NFTLNSYGIS | VDYSDGVRTFYGDSVK | GRAAGTFDS | 4.51 nd nd | 4.51 | 1/9 (3.56) |
| 12 | GFTLNSYGFS | VIYSDGRRTFYGDSQK | GRAAGTADS | nd nd 3.66 | 3.66 | 1/9 (4.01) |
| 13 | GRTLNSYGIS | VIYSDGRRTFVGYSVK | GRAAGTFDS | 4.50 3.05 nd | 3.77 | 2/9 (4.76) |
| 14 | FFTLNSYGIS | VIYSDGRRTFYDDSVK | GRAAGTIDS | 4.98 3.81 nd | 4.39 | 6/9 (4.48) |
| 15 | GFTNNTYGIS | VIYSDGERTFYGDSVK | GRAAGTFDS | nd nd nd | nd | 1/9 (4.69) |
| 16 | YFTLNSYGIS | VIYSFGRRTFYGDSVK | GRAAGTDDS | nd nd nd | nd | 0/9 |
| 17 | GWTLNSYGIS | VIYSDGRRTFYGDSVK | YRAAGTSDS | 2.78 2.82 3.01 | 2.87 | 5/9 (4.46) |
| 18 | GFTLNSVGIS | VIYSDGRRTFYIDSVK | GRAAGTFDS | 5.26 4.51 4.33 | 4.70 | 4/9 (4.37) |
| 19 | QFTLNSTGIS | VIYSDGRRTFYGDSVQ | GRAAGTFDS | 4.13 nd nd | 4.13 | 1/9 (3.62) |
| 20 | GFTLNSYGIS | VIYSDGRATFDGDSVK | GRAAGTFDE | nd nd nd | nd | 2/9 (3.93) |
| 21 | AFTLNSRGIS | VIYSDGRRTFYGDSVK | GRAAGDFDS | nd nd nd | nd | 4/9 (3.55) |
| 22 | GFTLNSYGIH | VIYSDGRRTFYGDNVK | DRAAGTFDS | 0.83 0.94 0.85 | 0.87 | 0/9 |
| 23 | GFTLNSYGIS | VIYSDGRRTFYGDSVF | GRAAGDFDS | 1.57 1.41 1.60 | 1.53 | 2/9 (3.45) |
| 24 | GFTLNSYGIC | VIYSDGWRTFRGDSVK | GRAAGTFDS | nd nd nd | nd | 2/9 (3.11) |
| 25 | GFTLNSMGIS | VIYSGGRRTFYGDSVY | GRAAGTFDS | nd nd 3.82 | 3.82 | 0/9 |
| 26 | GFTRNSYGIS | SIYSDGRRTFSGDSVK | GRAAGTFDS | nd nd nd | nd | 1/9 (3.73) |
| 27 | GFTKNSYGIS | VIYSNGLRTFYGDSVK | GRAAGTFDS | nd nd nd | nd | 1/9 (3.49) |
| 28 | GFTLNSYGLS | VIYSDGRRYFYGDSVK | GRAEGTFDS | nd 4.13 nd | 4.13 | 1/9 (2.95) |
| 29 | GFTLNSYGIS | HIYSDGRITFYLDSVK | GRAAGTFDS | nd nd nd | nd | 3/9 (4.25) |
| 30 | GHTLNSYGIK | VIYSDGRRTFYGDVVK | GRAAGTFDS | 4.91 nd nd | 4.91 | 0/9 |
| 31 | GFTLNSYGIS | VIYSDVRRTAYGDCVK | GRAAGTFDS | nd nd 4.34 | 4.34 | 1/9 (3.27) |
| 32 | GFTLNGYGGS | VIYSDGRRTCYGDSVK | GRAAGTFDS | nd nd nd | nd | 2/9 (3.23) |
| 33 | GFTLVMYGIS | VIYSDGRRTFAGDSVK | GRAAGTFDS | nd nd nd | nd | 2/9 (2.72) |
| 34 | GFTLNSYGIS | VIYSDGRRTFYGDSVV | GRYAGTFRS | nd 4.50 nd | 4.50 | 3/9 (4.48) |
| 35 | GFTLNSYLIS | VIYSDGRRKFYGDSVK | GRAAGTFDI | nd 4.06 6.11 | 5.08 | 3/9 (4.51) |
| 36 | GFTLNSYGIS | VIGSMGRRTFYGDSVK | GWAAGTFDS | nd nd 4.55 | 4.55 | 0/9 |
| 37 | GFTLNSYGIS | LISSDGRRTFYGDSVK | GRAAGTFDS | nd nd nd | nd | 0/9 |
| 38 | GFTLNSYGIS | VDYSDGRRTFYGKSVK | GRAAGGFDS | nd nd nd | nd | 0/9 |
| 39 | GFTLNSYGIS | VIYCDGRRTWYGDSVK | GRGAGTFDS | nd nd nd | nd | 1/9 (3.78) |
| 40 | YFTLNSYGIS | VIYSDGRRTFYDDSVK | GRAAGSFDS | 2.08 1.99 2.06 | 2.04 | 2/9 (3.45) |
| 41 | GFTLNSYFLS | VIYSDGRWTFYGDSVK | GRAAGTFDS | 3.42 nd nd | 3.42 | 3/9 (3.69) |
| 42 | GFTLNSYGIS | VIYSNGRRTFYGDSVK | GRAAGTMDV | nd 3.66 nd | 3.66 | 5/9 (4.45) |
| 43 | SFTLNSYGIS | VIYSDGRFTFYGDSVK | GRAAGTFDS | nd nd nd | nd | 0/9 |
| 44 | GFTLNSYGIS | VIYSQGRRTFYGDSVR | GRAAGDFDS | nd nd nd | nd | 0/9 |
| 45 | GFTLNSYGIS | AIESDGHRTFYGDSVK | GRAAGTFDS | nd 4.08 nd | 4.08 | 2/9 (4.56) |
| 46 | GFTLNSYGIN | VIYSDYVRTFYGDSVK | GRAAGTFDS | 4.82 nd 4.92 | 4.87 | 1/9 (4.61) |
| 47 | GFTLNSYGIS | VIYSDGRRTFYGDSVS | GRTAGTFDS | 1.57 1.63 1.75 | 1.65 | 8/9 (5.13) |
| 48 | GFTLNSYGIS | VIYSDPRRTFYGDSVK | GRAILTFDS | nd nd nd | nd | 1/9 (3.62) |

Again, the first 6 entries without any signal:

CDR-H1,CDR-H2,CDR-H3,"replicates, log10 nM","log10 Kd (nM), mean",empty controls
GFTLNSYGIS,VIYSDGRRTHFGDSVK,GRAAGTFCS,nd nd nd,nd,3/9 (4.16)
GFTLNSYGIA,VIYSDPRRTFYGDSVK,GRAAVTFDS,nd nd nd,nd,0/9
GFTLNSYGIS,PIYSDGRRTFYGDSVC,GRAAGIFDS,nd nd nd,nd,1/9 (3.14)
GFTLNSYGIS,VIYSDWRRTFYGDSVK,GRAAHTFDS,nd nd nd,nd,0/9
RFTLNSYGIS,VIYSDGRRTFYGDSVK,GRAAENFDS,nd nd nd,nd,0/9
GFTLTSYGQS,VIYSDGRRTFYGDSHK,GRAAGTFDS,nd nd nd,nd,2/9 (3.74)

As a blank, each scFv also met three strains without target: over library AAYL49, 15% of these pairings were detected, typically at 4.06 and seldom below 2.83. For each scFv, signals with the empty controls are counted beside the result, with their mean in brackets.

Source: Engelhart et al. 2022 (doi:10.1038/s41597-022-01779-4), MIT Lincoln Laboratory and A-Alpha Bio; data file from the FLAb repository.